The text below walks through data of EP4843575A1, “PHARMACEUTICAL COMPOSITION COMPRISING BRAF INHIBITOR AND USE OF PHARMACEUTICAL COMPOSITION IN MEDICINE” (dated 2026).

By UniProt entry, the sequences of proteins in these tests, tags left out. Residues count along the entry.
UniProt P15056, 416-766 V600E limits assumed: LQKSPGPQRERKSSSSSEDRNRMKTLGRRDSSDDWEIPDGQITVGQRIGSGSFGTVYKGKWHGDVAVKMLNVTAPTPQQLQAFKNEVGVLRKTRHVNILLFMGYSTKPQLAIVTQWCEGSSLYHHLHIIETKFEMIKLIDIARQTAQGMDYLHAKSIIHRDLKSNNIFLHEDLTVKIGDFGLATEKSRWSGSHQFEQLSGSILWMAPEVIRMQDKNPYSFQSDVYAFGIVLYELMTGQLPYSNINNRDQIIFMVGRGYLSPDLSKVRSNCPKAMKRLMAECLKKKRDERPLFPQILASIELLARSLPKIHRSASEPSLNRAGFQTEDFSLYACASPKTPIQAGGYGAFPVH

Data set [1] can be described thus: Beagle dog pharmacokinetic assay. The note with it: beagle dogs. The method, then:
Experimental animals: male beagle dogs, about 8-11 kg, 6 beagle dogs/compound, purchased from Beijing Marshall Biotechnology Co., Ltd.
Experimental method: On the day of the experiment, the beagle dogs were randomly grouped according to their body weights. The animals were fasted with water available for 12 to 14 h one day before the administration and were fed 4 h after the administration. The animals were administered according to Table 5. Table 5. Administration information
Before and after the administration, 1 ml of blood was taken from the jugular veins or limb veins, and placed in an EDTAK2 centrifuge tube. Centrifugation was performed at 5000 rpm at 4°C for 10 min, and plasma was collected. The blood collection time points for the intravenous group and intragastric group were both 0 min, 5 min, 15 min, 30 min, 1 h, 2 h, 4 h, 6 h, 8 h, 10 h, 12 h, 24 h, 48 h, and 72 h. Before analysis and detection, all samples were stored at -80°C. The samples were analysed quantitatively by LC-MS/MS. Table 6. Pharmacokinetic parameters of test compounds in plasma of beagle dogs

The target of the next data set is BRAFV600E (Homo sapiens, UniProt P15056, V600E). In words: BRAFV600E enzyme activity test (ADP-Glo). The note with it: inhibitory activity on BRAFV600E. The method, then:
BRAFV600E (ABCAM, ab204154) and MEK1K97R (USBio, M2865-06J) proteins were diluted at an appropriate dilution factor using 1 × Assay buffer (PH = 7.4 Tris-HCl buffer, supplemented with 10 mM MgCl2) such that the final concentration of BRAFV600E was 10 ng/µL and the final concentration of substrate MEK1K97R was 1 µM. 1 µL of BRAFV600E, 1 µL of compound serial dilution (final concentration starting from 2 µM, 5-fold dilution, 8 concentrations), and 6 µL of Assay buffer were pipetted to a 384-well reaction plate with a capacity of 20 µL. The plate was pre-incubated in a constant temperature incubator at 37°C for 30 min. 1 µL of 200 µM ATP and 1 µM MEK1 K97R were added to the reaction wells corresponding to the compound incubation, mixed evenly by vortexing, and preincubation was performed in a constant temperature incubator at 37°C for 60 min for enzymatic reaction. After the reaction was completed, 5 µL of the above reaction product was pipetted to another 384-well plate, and 5 µL of formulated ADP-Glo™ Reagent (Promega, V9101) was added and mixed evenly by pipetting, and then the plate was placed at room temperature for 40 min. 10 µL Kinase Detection Reagent was added to the 384-well plate and incubated at room temperature for 40 min. Finally, a microplate reader (BMG LRBTECH) was used and Luminescence module was selected to detect the LUM fluorescence value of each well (the gain value was fixed at 3600), and the formula Inhibition rate% = (1−(LUM Compound−LUM Background)/(LUM Solvent−LUM Background))∗100% [formula] was used to calculate the inhibition rate of the compound on BRAFV600E. The Graphpad software log(inhibitor) vs. response -- Variable slope (four parameters) equation was used to perform fitting analysis and calculate the IC50value of the sample.

Another data set deals with A375 cells. Nature of the data set: Inhibition of A375 cell proliferation. The note with it: 72 h. The protocol:
A375 cells (ATCC, CRL-1619) were cultured in DMEM complete medium (+10% FBS) in a CO2 incubator at 37°C for 48 h. The cells were trypsinized and counted, and then the density was adjusted to 1.67 × 10^4 cells/mL. 90 µL (1500 cells) of cells were inoculated into each well of a 96-well transparent bottom plate, and the plate was transferred to a CO2 incubator and the cells were cultured overnight at 37°C. After the cells were incubated overnight, 10 µL of the diluted compound (final concentration starting from 10 µM, 3-fold dilution, 11 concentrations) was added to each well using a multi-channel pipette. The positive control was a serum-free medium containing DMSO. After mixing evenly, the cells were placed in a CO2 incubator at 37°C for 72 h. After the incubation, the CellCounting-Lite®2.0 kit detection solution (Vazyme, DD1101-03) was taken out and returned to room temperature. 100 µL of CellCounting-Lite2.0 detection solution was added to each well, the plate was sealed with a sealing film, and the plate was placed on a shaker for shaking for 15 min (the whole process should be kept away from light). The Luminescence module of the microplate reader (BMG LRBTECH) was used to detect the fluorescence signal value LUM of each well. The formula Inhibition rate% = ((LUM Solvent−LUM Compound)/(LUM Solvent))∗100% [formula] was used to calculate the inhibition rate of the compound. The Graphpad software log(inhibitor) vs. response -- Variable slope (four parameters) equation was used to perform fitting analysis and calculate the IC50value of the sample. The ordinate of the data is the percentage of inhibition rate, and the abscissa is the logarithm of the sample concentration (Log10).

For data set [2] the following is noted: reported; cited from earlier work.
A short description of data set [3]: Rat pharmacokinetic assay. The note with it: rats, plasma. The method, then: 5.1 Experimental animals: Male SD rats, about 220 g, 6-8 weeks old, 6 rats/compound, purchased from Chengdu Dossy Experimental Animals Co., Ltd.
5.2 Experimental design: On the day of the experiment, the SD rats were randomly grouped according to their body weights. The animals were fasted with water available for 12 to 14 h one day before the administration and were fed 4 h after the administration. Table 7 Administration information
Before and after the administration, 0.1 ml of blood was taken from the orbit of the animals under isoflurane anaesthesia and placed in an EDTAK2 centrifuge tube. The blood was centrifuged at 5000 rpm and 4°C for 10 min to collect plasma. Blood sampling time points for the intravenous administration group: 0, 5 min, 15 min, 30 min, 1 h, 2 h, 4 h, 6 h, 8 h, and 24 h; blood sampling time points for the intragastric administration group: 0, 5 min, 15 min, 30 min, 1 h, 2 h, 4 h, 6 h, 8 h and 24 h. Before analysis and detection, all samples were stored at -80°C. Table 8 Pharmacokinetic parameters of test compounds in plasma of rats

The nature of data set [4]: Mouse pharmacokinetic assay. The note with it: mice; for AUC0-t / T1/2 / CL / Vdss: plasma. The method, then:
1.1 Experimental animals: male ICR mice, 20-25 g, 12 mice/compound. purchased from Chengdu Dossy Experimental Animals Co., Ltd.
1.2 Experimental design: On the day of the experiment, the ICR mice were randomly grouped according to their body weights. The animals were fasted with water available for 12 to 14 h one day before the administration and were fed 4 h after the administration. Table 3. Administration information
Before and after administration, 0.06 mL of blood was taken from the orbit under isoflurane anaesthesia and placed in an EDTAK2 centrifuge tube for centrifugation at 5000 rpm at 4°C for 10 min, followed by plasma collection. The blood collection time points for the intravenous administration group and intragastric administration group were 0, 5 min, 15 min, 30 min, 1 h, 2 h, 4 h, 7 h and 24 h. Before analysis and detection, all samples were stored at -80°C, and a quantitative analysis of samples was performed using LC-MS/MS. Table 4. Pharmacokinetic parameters of test compounds in plasma of mice

Setting [5] is: intragastric administration (10 mg/kg).
Setting [6] is: intravenous administration (2.5 mg/kg).

As to `N#Cc1c(NS(=O)(=O)N2CC3(CCC3)C2)cc(F)c(F)c1Oc1ccc2ncn(CCF)c(=O)c2c1`, the AUC0-t was 84.281 µg·h/mL in data set [1] (i.g. (3 mg/kg), plasma) and 31.095 µg·h/mL in data set [1] (i.v. (0.5 mg/kg), plasma). Besides, the Vdss in data set [1] (i.v. (0.5 mg/kg), plasma) worked out at 0.08 L/kg. Moreover, the IC50 against BRAFV600E and in the data set with A375 cells was below 10 nM each time.
`CC(C)(C)c1nc(-c2cccc(NS(=O)(=O)c3c(F)cccc3F)c2F)c(-c2ccnc(N)n2)s1`: the total brain-to-plasma ratio in data set [2] was 0.023.
Regarding `N#Cc1c(NS(=O)(=O)N2CC3(CC3)C2)ccc(F)c1Oc1ccc2ncn3ccnc3c2c1`, the IC50 in the data set with A375 cells was below 10 nM.
`N#Cc1c(NS(=O)(=O)N2CC3(CCC3)C2)ccc(F)c1Oc1ccc2ncn(CC(F)(F)F)c(=O)c2c1`: the IC50 was 10 to 50 nM at BRAFV600E and below 10 nM in the data set with A375 cells.
In data set [3] (setting [5]), `N#Cc1c(NS(=O)(=O)N2CC3(CC3)C2)ccc(F)c1Oc1ccc2ncn(CCF)c(=O)c2c1` came in with an AUC0-t of 4256.852 µg·h/mL and a T1/2 of 60.6 h. In data set [3] (setting [6]), this compound returned an AUC0-t of 1156.844 µg·h/mL, a CL of 0.036 mL/min/kg, a T1/2 of 50.9 h and a Vdss of 0.156 L/kg. The same compound gave an IC50 in the data set with A375 cells below 10 nM.
In the data set on A375 cells, `N#Cc1c(NS(=O)(=O)N2CC3(CCC3)C2)ccc(F)c1Oc1ccc2ncn3ccnc3c2c1` showed an IC50 below 10 nM.
Same read-out and setting: next, `Cn1cnc2ccc(Oc3c(F)ccc(NS(=O)(=O)N4CCC5CC54)c3C#N)cc2c1=O` (racemic): below 10 nM.
Consider `Cn1cnc2ccc(Oc3c(F)ccc(NS(=O)(=O)N4CC5(CCC5)C4)c3C#N)cc2c1=O`, for which the F in data set [1] (i.g. (3 mg/kg)) is on record as at least 98%; in data set [4] (i.g. (10 mg/kg)) it was 96.5%. Moreover, the AUC0-t in data set [1] (i.g. (3 mg/kg), plasma) came out at 116.724 µg·h/mL; in data set [1] (i.v. (0.5 mg/kg), plasma), 17.68 µg·h/mL; in data set [4] (i.g. (10 mg/kg)), 861.406 µg·h/mL; in data set [4] (i.v. (2.5 mg/kg)), 223.249 µg·h/mL. In addition, the CL in data set [1] (i.v. (0.5 mg/kg), plasma) was 0.492 mL/min/kg; in data set [4] (i.v. (2.5 mg/kg)), 0.133 mL/min/kg. The Vdss was determined as 0.156 L/kg in data set [1] (i.v. (0.5 mg/kg), plasma) and 0.148 L/kg in data set [4] (i.v. (2.5 mg/kg)). In addition, the IC50 against BRAFV600E was 10 to 50 nM; in the data set with A375 cells, below 10 nM. Moreover, the brain/plasma ratio in data set [4] (i.g. (10 mg/kg)) was 0.013. Also, the T1/2 in data set [4] (i.g. (10 mg/kg)) turned out to be 10.7 h; in data set [4] (i.v. (2.5 mg/kg)), 14.8 h.
The compound `Cn1cnc2ccc(Oc3c(F)ccc(NS(=O)(=O)N4CC(CF)C4)c3C#N)cc2c1=O` displayed an IC50 in the data set on A375 cells below 10 nM.
The same measure, in the same setting: with `N#Cc1c(NS(=O)(=O)N2CC3(CCC3)C2)ccc(F)c1Oc1ccc2ncn(C3COC3)c(=O)c2c1` the figure was below 10 nM; with `Cn1cnc2ccc(Oc3c(F)ccc(NS(=O)(=O)N4CC5(CC5)C4)c3C#N)cc2c1=O`, below 10 nM.
On the same count and under the same terms, with `COn1cnc2ccc(Oc3c(F)ccc(NS(=O)(=O)N4CC[C@@H](F)C4)c3C#N)cc2c1=O` the figure was below 10 nM.
Consider `N#Cc1c(NS(=O)(=O)N2CC3(CCC3)C2)ccc(F)c1Oc1ccc2ncn(CC(F)F)c(=O)c2c1`, for which the IC50 on BRAFV600E and in the data set on A375 cells was below 10 nM throughout.
At BRAFV600E, `N#Cc1c(NS(=O)(=O)N2CC3(CCC3)C2)ccc(F)c1Oc1ccc2ncn(C3CC3)c(=O)c2c1` came in with an IC50 of 10 to 50 nM. In addition, in data set [4] (i.g. (10 mg/kg)), the brain/plasma ratio stood at 0.0095, the AUC0-t was 848.012 µg·h/mL and the T1/2 worked out at 11.74 h. In data set [4] (i.v. (2.5 mg/kg)), this compound had an AUC0-t of 376.04 µg·h/mL, a CL of 0.0822 mL/min/kg, a T1/2 of 12.8 h and a Vdss of 0.0837 L/kg.
Turning to `Cc1cnc2c3cc(Oc4c(F)ccc(NS(=O)(=O)N5CC6(CCC6)C5)c4C#N)ccc3ncn12`, in data set [4] (i.g. (10 mg/kg)), the brain/plasma ratio is 0.0162, the AUC0-t amounted to 442.783 µg·h/mL and the T1/2 is 14.2 h. For the same compound, in data set [4] (i.v. (2.5 mg/kg)), the AUC0-t was found to be 125.977 µg·h/mL, the T1/2 is given as 7.5 h and the Vdss is listed as 0.135 L/kg. In the data set on A375 cells, this compound yielded an IC50 below 10 nM.
Take `N#Cc1c(NS(=O)(=O)N2CC3(CCC3)C2)ccc(F)c1Oc1ccc2ncn(CCF)c(=O)c2c1`: the IC50 on BRAFV600E and in the data set on A375 cells was below 10 nM throughout.
`N#Cc1c(NS(=O)(=O)N2CC3(CC3)C2)cc(F)c(F)c1Oc1ccc2ncn(CCF)c(=O)c2c1` displayed an IC50 with A375 cells below 10 nM.
The same measure, in the same setting: with `N#Cc1c(NS(=O)(=O)N2CC3(CCC3(F)F)C2)ccc(F)c1Oc1ccc2ncn(CC(F)F)c(=O)c2c1` the figure was below 10 nM; with `N#Cc1c(NS(=O)(=O)N2CC[C@@H](F)C2)cc(F)c(F)c1Oc1ccc2ncn(CCF)c(=O)c2c1`, below 10 nM.
For the compound `N#Cc1c(NS(=O)(=O)N2CC3(CCC3F)C2)ccc(F)c1Oc1ccc2ncn(CC(F)F)c(=O)c2c1` (single isomer, unassigned), the IC50 on BRAFV600E and in the data set with A375 cells was below 10 nM throughout.
